Active and inactive are the calls of the source. The calls are words filed in the database; no cut-off is given here.
How the values were obtained:
Complement C5 [1] = target: T1, Complement C5 (Homo sapiens, UniProt P01031); assay: Binding affinity to recombinant human C5a assessed as conformational change at 1 to 100 uM incubated for 1 hr at 4degC by circular dichroism analysis
Complement C5 [2] = target: T1, Complement C5; assay: Binding affinity to recombinant human C5a assessed as conformational change =< 1 uM at 4 degC incubated for 1 hr by circular dichroism analysis
Complement C5 [3] = target: T1, Complement C5; assay: Binding affinity to recombinant human C5a assessed as loss of super secondary structure at > 10 uM incubated for 1 hr at 4 degC by circular dichroism analysis
Complement C5 [4] = target: T1, Complement C5; assay: Binding affinity to human C5a assessed as induction of conformational change by measuring red shift in absorption maxima at 1 uM by fluorescence analysis
Complement C5 [5] = target: T1, Complement C5; assay: Binding affinity to human C5a assessed as loss of secondary structure by measuring red shift in absorption maxima at 10 to 100 uM by fluorescence analysis
Complement C5 [6] = target: T1, Complement C5; assay: Induction of human recombinant C5a unfolding by circular dichroism analysis
Complement C5 [7] = target: T1, Complement C5; assay: Induction of human recombinant C5a destabilization assessed as protein structure helicity up to 10 uM by circular dichroism analysis
Complement C5 [8] = target: T1, Complement C5; assay: Binding affinity to human C5a assessed as change in enthalpy at 80 uM by isothermal titration calorimetry
Complement C5 [9] = target: T1, Complement C5; assay: Binding affinity to human C5a assessed as induction of conformational change with no shift in absorption maxima at 1 uM by fluorescence analysis

Protein sequences, listed by entry. Tags and fused reporters are not part of them.
UniProt P01031, whole entry: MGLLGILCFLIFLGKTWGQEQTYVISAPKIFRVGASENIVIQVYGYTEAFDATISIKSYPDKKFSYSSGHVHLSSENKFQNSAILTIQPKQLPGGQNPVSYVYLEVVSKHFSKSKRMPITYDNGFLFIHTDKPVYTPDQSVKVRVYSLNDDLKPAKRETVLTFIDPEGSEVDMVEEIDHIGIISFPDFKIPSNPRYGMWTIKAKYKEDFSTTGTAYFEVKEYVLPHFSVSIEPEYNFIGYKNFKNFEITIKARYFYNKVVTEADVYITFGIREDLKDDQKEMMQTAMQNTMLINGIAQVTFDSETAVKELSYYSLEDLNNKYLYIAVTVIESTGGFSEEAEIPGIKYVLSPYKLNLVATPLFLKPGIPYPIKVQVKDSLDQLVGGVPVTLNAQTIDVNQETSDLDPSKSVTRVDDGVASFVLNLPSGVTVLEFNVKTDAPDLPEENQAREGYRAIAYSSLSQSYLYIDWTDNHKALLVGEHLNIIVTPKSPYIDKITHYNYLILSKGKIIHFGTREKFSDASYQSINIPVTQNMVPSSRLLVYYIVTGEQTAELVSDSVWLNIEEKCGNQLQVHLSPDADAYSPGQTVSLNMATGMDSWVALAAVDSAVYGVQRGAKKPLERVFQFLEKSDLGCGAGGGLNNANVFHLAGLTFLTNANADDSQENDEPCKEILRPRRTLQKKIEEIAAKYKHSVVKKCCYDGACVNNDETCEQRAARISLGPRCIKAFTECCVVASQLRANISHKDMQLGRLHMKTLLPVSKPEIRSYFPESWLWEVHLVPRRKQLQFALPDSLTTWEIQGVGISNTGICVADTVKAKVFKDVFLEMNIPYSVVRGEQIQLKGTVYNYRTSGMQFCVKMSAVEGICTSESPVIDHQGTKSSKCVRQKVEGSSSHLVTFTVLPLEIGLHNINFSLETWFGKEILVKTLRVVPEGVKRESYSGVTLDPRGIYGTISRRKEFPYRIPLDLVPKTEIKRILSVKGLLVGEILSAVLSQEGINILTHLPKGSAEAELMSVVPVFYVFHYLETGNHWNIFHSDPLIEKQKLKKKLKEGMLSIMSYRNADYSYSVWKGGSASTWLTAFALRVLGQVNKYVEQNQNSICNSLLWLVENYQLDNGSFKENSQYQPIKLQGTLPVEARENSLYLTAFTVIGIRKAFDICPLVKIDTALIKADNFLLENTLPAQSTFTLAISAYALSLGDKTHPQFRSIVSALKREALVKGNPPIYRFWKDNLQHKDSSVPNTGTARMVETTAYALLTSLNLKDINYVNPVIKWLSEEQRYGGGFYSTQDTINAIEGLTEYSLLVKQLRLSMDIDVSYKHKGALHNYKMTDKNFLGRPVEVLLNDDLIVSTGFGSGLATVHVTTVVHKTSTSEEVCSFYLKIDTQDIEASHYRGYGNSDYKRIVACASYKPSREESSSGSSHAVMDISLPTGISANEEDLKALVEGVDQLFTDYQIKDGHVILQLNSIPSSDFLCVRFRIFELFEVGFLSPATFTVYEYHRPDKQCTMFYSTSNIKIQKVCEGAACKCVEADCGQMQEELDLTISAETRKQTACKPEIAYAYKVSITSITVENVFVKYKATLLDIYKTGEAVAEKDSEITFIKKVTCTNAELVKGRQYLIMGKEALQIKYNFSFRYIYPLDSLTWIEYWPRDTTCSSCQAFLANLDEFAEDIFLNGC

| Activity (Complement C5 [1]) | Activity (Complement C5 [2]) | Activity (Complement C5 [3]) | Activity (Complement C5 [4]) | Activity (Complement C5 [5]) | Activity (Complement C5 [6]) | Activity (Complement C5 [7]) | Activity (Complement C5 [8]) | Activity (Complement C5 [9]) | SMILES |
| --- | --- | --- | --- | --- | --- | --- | --- | --- | --- |
| Active | Active | Active | Active | Active | Active | 5% |  |  | CC(C(=O)O)c1ccc2c(c1)[nH]c1ccc(Cl)cc12 (stereo not given) [CARPROFEN] |
| Active | Active | Active |  | Active | Active | 5% | Active | Active | O=C(c1ccc(OCCN2CCCCC2)cc1)c1c(-c2ccc(O)cc2)sc2cc(O)ccc12 [RALOXIFENE] |

From ChEMBL document CHEMBL4396950, “A rational search for discovering potential neutraligands of human complement fragment 5a (hC5a)” (Bioorg Med Chem, 2019)
